The assay addresses Albumin (Homo sapiens, UniProt P02768). The assay is described as follows: Inhibitory concentration bound to tryptophan containing region of Serum albumin in fluorescence quenching.

Sequences of proteins named here, by UniProt entry; tags and fusion partners are left off. Residues count along the entry.
UniProt P02768, 25-609 limits assumed: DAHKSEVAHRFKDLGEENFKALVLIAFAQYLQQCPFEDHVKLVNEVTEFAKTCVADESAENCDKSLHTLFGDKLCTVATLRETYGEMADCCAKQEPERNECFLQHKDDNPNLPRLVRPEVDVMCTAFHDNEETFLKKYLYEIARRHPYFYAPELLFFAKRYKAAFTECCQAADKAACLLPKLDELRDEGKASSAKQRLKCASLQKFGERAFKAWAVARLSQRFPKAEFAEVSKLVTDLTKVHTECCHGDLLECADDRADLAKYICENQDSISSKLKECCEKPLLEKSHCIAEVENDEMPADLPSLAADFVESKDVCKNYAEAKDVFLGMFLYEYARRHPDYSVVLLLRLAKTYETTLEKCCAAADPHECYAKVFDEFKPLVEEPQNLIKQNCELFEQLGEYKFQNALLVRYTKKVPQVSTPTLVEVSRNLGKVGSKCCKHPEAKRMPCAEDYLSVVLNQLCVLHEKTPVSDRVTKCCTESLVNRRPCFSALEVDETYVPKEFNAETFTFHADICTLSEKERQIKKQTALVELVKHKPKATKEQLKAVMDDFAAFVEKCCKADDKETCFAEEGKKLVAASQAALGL

Usually IC50 stands for the point on the concentration scale where inhibition reaches its midpoint. In the case of `[N-]=[N+]=NC(F)(F)C(Cl)Br` (stereo unspecified), the 50% inhibitory concentration (IC50) is 300 µM.
